System: HL-7702
Experiment: MTT test on human normal hepatocytes HL-7702
Type: cell-based
Details: human normal hepatocytes HL-7702, MTT, 48 h

“4β-S-(3-phenyl-1,3,4-thiadiazol-2(3H)thione potassium salt-5)-4′-demethylepipodophyllotoxin [Compound 26]” was tested, and the IC50 was 43.4 ± 4 µM.

From patent US20200216449A1, “4-Sulfur Substituted Podophyllotoxin Derivative and Preparation Method Therefor and Use Thereof” (priority 2017, published 2020)
